Results taken from publication PMC8534029 (Cells, 2021).

By UniProt entry, the sequences of proteins in these tests, tags left out. Where a name states a change or a piece, a line headed by the entry shows the natural chain unless it says otherwise.
UniProt P41145: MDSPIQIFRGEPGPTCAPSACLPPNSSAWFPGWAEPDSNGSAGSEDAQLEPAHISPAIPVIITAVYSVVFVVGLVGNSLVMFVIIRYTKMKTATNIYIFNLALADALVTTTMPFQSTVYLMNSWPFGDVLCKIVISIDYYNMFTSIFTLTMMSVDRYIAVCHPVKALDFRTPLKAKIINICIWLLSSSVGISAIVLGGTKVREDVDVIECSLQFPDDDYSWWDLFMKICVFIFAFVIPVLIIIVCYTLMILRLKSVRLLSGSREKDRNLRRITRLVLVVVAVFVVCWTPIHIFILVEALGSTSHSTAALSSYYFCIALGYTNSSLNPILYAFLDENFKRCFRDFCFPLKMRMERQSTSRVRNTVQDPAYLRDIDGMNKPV

Molecular target: human KOR (CHO cell membranes) (Homo sapiens, UniProt P41145)
Assay: [3H]diprenorphine competition on membranes
Details: 1.0 nM [3H]diprenorphine, 50 mM Tris-HCl, 5 mM MgCl2, 1 mM EGTA, pH 7.4, 25 °C; no OT; orthosteric

diprenorphine
LogIC50 (M) / Agonist: −8.52 ± 0.06 log M | LogKi (M) / Agonist: −8.86 ± 0.06 log M
